Experimental data reported in patent publication US20050113256A1, “Methods of reducing the nicotine content of tobacco plants and tobacco plants obtained thereby” (priority 2003, published 2005).

Conditions: GOX derived from A. niger, dry powder; U = one micromole of glucose per minute at about 25° C. and pH=7

glucose oxidase [Active GOX]
GOX activity: 200 to 250 U/mg
